Measured values published in patent US20050049197A1, “Induction of immune response against desired determinants” (Epimmune Inc., priority 1993, published 2005).

Test system: P. yoelii sporozoites
Assay: Inhibition of liver stage development assay (ILSDA), mouse hepatocytes infected with P. yoelii sporozoites
Format: cell-based
Conditions: sera of immunized mice, dilution not stated

Q: With CC(C)C[C@H](NC(=O)[C@@H](NC(=O)[C@H](Cc1c[nH]c2ccccc12)NC(=O)[C@H](C)NC(=O)[C@H](C)NC(=O)[C@@H](NC(=O)[C@H](CC1CCCCC1)NC(=O)[C@H](CCCCN)NC(=O)[C@@H](C)N)C(C)C)[C@@H](C)O)C(=O)N[C@@H](CCCCN)C(=O)N[C@@H](C)C(=O)N[C@H](C)C(=O)N[C@@H](CC(N)=O)C(=O)N[C@@H](C)C(=O)N[C@@H](CC(N)=O)C(=O)N1CCC[C@H]1C(=O)N[C@@H](CC(N)=O)C(=O)N[C@@H](C)C(=O)N[C@@H](CC(N)=O)C(=O)N1CCC[C@H]1C(=O)N[C@@H](CC(N)=O)C(=O)N[C@@H](C)C(=O)N[C@@H](CC(N)=O)C(=O)N1CCC[C@H]1C(=O)N[C@@H](CC(N)=O)C(=O)N[C@@H](C)C(=O)N[C@@H](CC(N)=O)C(=O)N1CCC[C@H]1C(=O)NCC(=O)NCC(=O)N[C@@H](CO)C(=O)O [PADRE ®-PfB, aKXVAAWTLKAa(NANP)4GGS] as the molecule, how does the “inhibition of P. yoelii sporozoite invasion and development in murine hepatocytes” value read?
A: Its value is “no significant effect”.
